# Laboratory results as given in publication PMC4411102 (PLoS ONE, 2015).
# Test system: HIV-1 strains (IIIB, BaL, ADA5 and NL4-3)
# Assay: p24 antigen assay in PBMCs
# Conditions: presence of HbAHP-25 (4.46–71.40 μM), 120 hrs
smiles,measurement,value
CC(C)C[C@H](NC(=O)[C@H](CC(C)C)NC(=O)[C@H](CCCCN)NC(=O)[C@H](CS)NC(=O)[C@H](CC(N)=O)NC(=O)[C@@H](NC(=O)[C@@H]1CCCN1C(=O)[C@H](CC(=O)O)NC(=O)[C@@H](NC(=O)[C@H](CCCNC(=N)N)NC(=O)[C@H](CC(C)C)NC(=O)[C@H](CCCCN)NC(=O)[C@H](Cc1c[nH]cn1)NC(=O)[C@H](C)N)C(C)C)C(C)C)C(=O)N[C@@H](CO)C(=O)N[C@@H](Cc1c[nH]cn1)C(=O)N[C@@H](CS)C(=O)N[C@@H](CC(C)C)C(=O)N[C@@H](CC(C)C)C(=O)N[C@H](C(=O)N[C@H](C(=O)N[C@@H](CC(C)C)C(=O)N[C@@H](C)C(=O)N[C@@H](CCCNC(=N)N)C(=O)N[C@@H](Cc1c[nH]cn1)C(N)=O)[C@@H](C)O)C(C)C [HbAHP-25],Reduction in p24 levels,More than 90%
